Activity calls are given as the source filed them. The rule behind the calls is not given here.
What was measured:
[1] = target: Protein arginine N-methyltransferase 5 (Homo sapiens, UniProt O14744); assay: Inhibition of PRMT5 (unknown origin) at 100 uM
[2] = target: T1, Protein arginine N-methyltransferase 7 (Homo sapiens) (UniProt Q9NVM4); assay: Inhibition of PRMT7 (unknown origin) at 100 uM
T1 sequence (whole entry): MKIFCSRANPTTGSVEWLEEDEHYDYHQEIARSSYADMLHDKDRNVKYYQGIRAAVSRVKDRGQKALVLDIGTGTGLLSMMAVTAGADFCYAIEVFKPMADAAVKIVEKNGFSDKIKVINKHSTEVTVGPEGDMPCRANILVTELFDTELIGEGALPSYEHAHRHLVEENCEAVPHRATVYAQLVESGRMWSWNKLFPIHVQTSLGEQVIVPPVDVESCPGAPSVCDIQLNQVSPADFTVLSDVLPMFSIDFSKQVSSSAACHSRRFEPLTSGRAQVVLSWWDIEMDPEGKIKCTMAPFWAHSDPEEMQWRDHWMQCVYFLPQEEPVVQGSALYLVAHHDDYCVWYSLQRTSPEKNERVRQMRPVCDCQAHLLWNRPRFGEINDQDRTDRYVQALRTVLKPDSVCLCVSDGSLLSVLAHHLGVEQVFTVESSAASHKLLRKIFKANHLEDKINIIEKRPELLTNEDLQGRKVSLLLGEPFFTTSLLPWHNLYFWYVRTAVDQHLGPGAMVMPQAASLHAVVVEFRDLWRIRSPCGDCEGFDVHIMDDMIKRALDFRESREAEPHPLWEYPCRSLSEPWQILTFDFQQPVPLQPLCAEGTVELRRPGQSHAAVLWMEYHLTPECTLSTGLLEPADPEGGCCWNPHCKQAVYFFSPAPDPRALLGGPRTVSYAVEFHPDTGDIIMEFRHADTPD

Sequences of proteins named here, by UniProt entry; tags and fusion partners are left off.
UniProt O14744, whole entry: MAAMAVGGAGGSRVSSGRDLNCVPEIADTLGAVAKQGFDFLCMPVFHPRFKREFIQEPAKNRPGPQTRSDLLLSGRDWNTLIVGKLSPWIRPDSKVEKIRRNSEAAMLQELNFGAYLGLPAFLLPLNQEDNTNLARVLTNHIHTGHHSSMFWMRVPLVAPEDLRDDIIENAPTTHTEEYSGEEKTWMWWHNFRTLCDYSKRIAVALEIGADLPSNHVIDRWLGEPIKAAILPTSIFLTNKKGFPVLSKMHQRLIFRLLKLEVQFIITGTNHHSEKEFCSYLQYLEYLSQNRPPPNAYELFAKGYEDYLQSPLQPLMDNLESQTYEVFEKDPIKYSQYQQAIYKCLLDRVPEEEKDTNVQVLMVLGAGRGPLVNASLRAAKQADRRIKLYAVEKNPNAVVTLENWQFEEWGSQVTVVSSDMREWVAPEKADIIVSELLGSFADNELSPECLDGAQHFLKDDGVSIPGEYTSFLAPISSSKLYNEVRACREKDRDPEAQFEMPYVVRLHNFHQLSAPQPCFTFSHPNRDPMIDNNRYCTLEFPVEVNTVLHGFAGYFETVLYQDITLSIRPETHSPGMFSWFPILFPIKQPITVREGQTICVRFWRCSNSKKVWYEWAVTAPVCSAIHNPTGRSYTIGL

## CNC[C@H](O)CN(C)Cc1ccccc1OCc1ccc(-c2nccs2)c(Cl)c1
[1]
  inhibition: inactive
[2]
  inhibition: inactive
